Test results published in article PMC2713098 (Nuclear medicine and biology, 2009).

Protein sequences, listed by entry. Tags and fused reporters are not part of them.
UniProt P0DMS8, whole entry: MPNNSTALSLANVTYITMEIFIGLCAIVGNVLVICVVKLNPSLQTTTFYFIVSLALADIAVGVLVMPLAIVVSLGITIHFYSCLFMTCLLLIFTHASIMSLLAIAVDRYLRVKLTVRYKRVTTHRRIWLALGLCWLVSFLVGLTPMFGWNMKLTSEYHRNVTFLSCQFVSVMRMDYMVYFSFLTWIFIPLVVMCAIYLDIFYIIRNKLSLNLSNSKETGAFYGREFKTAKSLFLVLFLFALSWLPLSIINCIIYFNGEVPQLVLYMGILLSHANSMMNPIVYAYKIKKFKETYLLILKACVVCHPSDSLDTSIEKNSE

Target: human A3AR (Homo sapiens, UniProt P0DMS8)
Details: Figures 1A and 1B

CCNC(=O)[C@H]1O[C@@H](n2cnc3c(N)ncnc32)[C@H](O)[C@@H]1O [NECA, adenosine-5′-N-ethyluronamide]
potency at human versus rat A3AR: more potent at the human A3AR
